# Test results from article PMC11241344, “TriplEP-CPP: Algorithm for Predicting the Properties of Peptide Sequences” (International Journal of Molecular Sciences, 2024).
# How the values were obtained:
# [1] = system: McCoy mouse fibroblast cells; format: cell-based; conditions: MTT test, peptide C=0,1 mM (100 µM), 24 h incubation at 37 °C, 5% CO2, absorbance 570/690 nm, mean ± standard deviation (n = 5)
# Protocol: (§1) Since the peptides predicted as CPPs are intended to be used as safe intracellular delivery systems, it is necessary to evaluate the degree of their toxicity to mammalian cells. For this purpose, the compounds investigated were added to human HaCaT keratinocyte cells and McCoy mouse fibroblast cells at a final concentration of 100 μM.
# (§2) One of the most important criteria in the search for new penetrating peptides is to ensure the safety of their further use and to assess potential problems and risks. […] Therefore, we incubated human HaCaT keratinocyte and McCoy mouse fibroblast cells with our synthesized compounds at a final concentration of 100 μM for 24 h at 37 °C. […] The use of a fluorescent tag makes it possible to observe the penetration of the peptides as well as their distribution and localization within the cells. For this purpose, the synthesized compounds were conjugated with the fluorescent tag NBD-F and incubated with cells at a final concentration of […] for 4 h at 37 °C. […]
# (§3) The cytotoxicity of the peptides was assessed using the MTT-test (3-(4,5-dimethylthiazol-2-yl)2,5-diphenyltetrazolium bromide) according to a standard protocol. […] The amount of MTT was measured spectrophotometrically at 570 nm and 690 nm using a Multiskan Ascent microplate photometer (ThermoScientific, Waltham, MA, USA). […]
# [2] = system: human HaCaT keratinocyte cells; format: cell-based; conditions: MTT test, peptide C=0,1 mM (100 µM), 24 h incubation at 37 °C, 5% CO2, absorbance 570/690 nm, mean ± standard deviation (n = 5)
# Protocol: as §1, §2, §3
smiles,measurement,setting,value
"CC[C@H](C)[C@H](NC(=O)[C@H](CCCCN)NC(=O)[C@@H](NC(=O)[C@H](CCC(N)=O)NC(=O)[C@@H](N)CCCNC(=N)N)[C@@H](C)CC)C(=O)N[C@@H](Cc1c[nH]c2ccccc12)C(=O)N[C@@H](Cc1ccccc1)C(=O)N[C@@H](CCC(N)=O)C(=O)N[C@@H](CC(N)=O)C(=O)N[C@@H](CCCNC(=N)N)C(=O)N[C@@H](CCCNC(=N)N)C(=O)N[C@@H](CCSC)C(=O)N[C@@H](CCCCN)C(=O)N[C@@H](Cc1c[nH]c2ccccc12)C(=O)N[C@@H](CCCCN)C(=O)N[C@@H](CCCCN)C(=O)O [penetratin, reference compound]","Percentage of Viable Cells, McCoy",[1],70.9 ± 5.3%
same,"Percentage of Viable Cells, HaCaT",[2],71.8 ± 3.0%
